In paper PMC11134845:

Molecular target: HSV-1F gB ectodomain (recombinant glycoprotein B of Herpes simplex virus 1 strain F, aa 30-729) (Herpes simplex virus 1 (strain F)) (UniProt P06436)
Assay: cryo-EM structure

## HSV-1F gB ectodomain (recombinant glycoprotein B of Herpes simplex virus 1 strain F, aa 30-729) (from UniProt P06436 30-729) (domain or fragment)
  stoichiometry N: 3
